For the assay, the target named is human A2a receptor (Homo sapiens, UniProt P29274). Put plainly: A2a receptor competition binding assay (Scintillation Proximity, tritiated radioligand). As to conditions: read-out: A2a EC50; membranes from HEK293 cells expressing the human A2a receptor; 0.5 nM tritiated ligand; SPA beads; one hour at room temperature. (Scintillation proximity formats need no separation of bound from free tracer.)

Structures are written as SMILES.

Regarding `COc1cccc2c1nc(N)n1nc(CN3C[C@@H](C)N(c4ccc(F)cc4)[C@@H](C)C3)nc21`, the EC50 (commonly the concentration giving half of the maximal effect) came out at 32.4 nM.
`COc1cccc2c1nc(N)n1nc(CN3CCN(c4cncc(F)c4)C[C@H]3C)nc21`: the EC50 is 18.4 nM.
With `COc1cccc2c1nc(N)n1nc(CN3CCN(c4ccc(F)cc4)[C@H](C)C3)nc21`, the EC50 came out at 8.25 nM.
Then `COc1cccc2c1nc(N)n1nc(CCCN3CCN(c4ccc(F)cc4)C[C@H]3C)nc21`, with 24.4 nM.
